We go through two molecules from paper PMC11477000, “Enantioselective Binding of Proton Pump Inhibitors to Alpha1-Acid Glycoprotein and Human Serum Albumin—A Chromatographic, Spectroscopic, and In Silico Study” (International Journal of Molecular Sciences, 2024).

This data set relates to α1-acid glycoprotein (AGP). In words: Bound percentage by HPLC on AGP column, extrapolation to zero organic modifier. The class given is in vitro ADME, human. The conditions noted are these: for Bound percentage (b%), average: average of IPA, EtOH, MeOH. The protocol:
Chromatographic columns containing proteins can be used to determine the percentage of drug binding. A plot of the natural logarithm of the retention factors against the proportion of organic modifiers was created. […] The intercept of these linear equations can be used to calculate the bound percentage according to Equation (4) (see in Section 3.2).
Chromatographic measurements were carried out on two separate HPLC systems. The AGP binding study was performed on a Waters 2695e chromatographic system paired with a Waters 2996 PDA detector, controlled by Empower 3 FR5 (Waters Corp., Milford, MA, USA), while the HSA binding study was performed on an Agilent 1100 HPLC system, consisting of an inline degasser (G1322A), a quaternary pump (G1311A), an automatic injector (G1329A) paired with sample thermostat (G1330A), a column thermostat (G1316A), and a diode array detector (G1315A) with Agilent Chemstation B04.03-SP2 software (Agilent, Bronnwald, Germany). For the binding studies, two protein-based chiral stationary phases were utilized. The chromatographic binding study for AGP was conducted on a ChromTech Chiral-AGP column (150 mm × 4.0 mm; ChromTech Ltd., Congleton, UK), while the binding study for HSA was performed on a Daicel Chiralpak HSA column (50 mm × 4.0 mm; Daicel Corp., Osaka, Japan). The detection wavelength was 210 nm for all measurements. The stock solutions of PPIs were prepared at a concentration of 1 mg/mL in MeOH. Subsequent dilutions were prepared using water. The injected samples were mixed and diluted from the stock solutions. The final concentration for the eutomer was 0.2 mg/mL, and for the distomer, it was 0.1 mg/mL. A volume of 2 μL was injected. To mitigate the instability of PPIs in aqueous solutions, the samples were kept at a temperature of 4 °C. Cooling the samples to 4 °C prevented significant decomposition for a period of 24 h. After 24 h, new samples were prepared for injection. Chromatographic parameters were calculated based on the following equations. The retention factor (k) was calculated as:(1) k=(tr−t0)/t0 where tr is the retention time of the investigated analyte, and t0 is the dead time, determined as the first peak appearance in the chromatogram. Resolution was calculated based on the following equation:(2) Rs=2(t2−t1)/(w1+w2) where t2 and t1 are the retention times of the second and first eluted enantiomers, respectively, while w is the peak width. The separation factor (α) was calculated as follows:(3) α=k2/k1 where k1 and k2 are the retention factors of the first- and second-eluting enantiomers, respectively. The k values were also used to calculate the protein-bound percentage (b%) using Equation (4):(4) b%=k/1+k×100

The mark [1] stands for this setting: extrapolation to zero percent EtOH.
[2] abbreviates: extrapolation to zero percent IPA.
The mark [3] stands for this setting: extrapolation to zero percent MeOH.

Molecules are shown by their SMILES. Several values for one entry are separate records, joined by “and”; a condition that tells them apart may be missing. Equal entries are not always repeated.

For `COc1ccc2[nH]c([S@+]([O-])Cc3ncc(C)c(OC)c3C)nc2c1` [R-omeprazole], the “Bound percentage (b%), average” value is 96.65%. Also, the “Bound percentage (b%)” value under setting [1] is recorded as 96.74%. Also, the “Bound percentage (b%)” value under setting [2] is given as 98.97%. Besides, under setting [3], the “Bound percentage (b%)” value was 94.25%.

On to `COc1ccc2nc([S@@+]([O-])Cc3ncc(C)c(OC)c3C)[nH]c2c1` [S-omeprazole, esomeprazole], for which the “Bound percentage (b%), average” value is 97.23% and 97.23 ± 2.23%. Further, under setting [1], the “Bound percentage (b%)” value was 97.39%. For the same molecule, the “Bound percentage (b%)” value under setting [2] was 99.38%. Moreover, the “Bound percentage (b%)” value under setting [3] is 94.93%.
